{"source": "patent US20160166556A1", "about": "“METHODS OF TREATING PULMONARY HYPERTENSION” (Gilead Sciences, Inc., priority 2014, published 2016)", "tested_on": "Su/Hx rats", "details": "4 weeks; for plasma levels of BNP: Su/Hx vehicle 0.23±0.1, sham 0.1±0.01; for RV hypertrophy (RV:LV, RV weight normalized to LV and septum): Su/Hx vehicle 0.49±0.1, sham 0.25±0.01; for diastolic PAP: Su/Hx vehicle 35±8, sham 11±2; for mean PAP: Su/Hx vehicle 49±11, sham 15±1; for completely muscularized arterioles: Su/Hx vehicle about 56.6%; for systolic PAP: mean±SEM, Su/Hx vehicle 79±21, sham 19±1", "note": "Where two headings read alike, the source gives them in different places.", "data": [{"smiles": "O=C(Nc1cccc(-c2nncn2C2CC2)c1)c1cc(-n2cnc(C3CC3)c2)ccn1", "note": "[Compound 4, 4-(4-cyclopropyl-1H-imidazol-1-yl)-N-(3-(4-cyclopropyl-4H-1,2,4-triazol-3-yl)phenyl)picolinamide]", "values": [{"measurement": "plasma levels of BNP", "setting": "0.1% in chow", "result": "0.1 ± 0.05", "unit": "ng/mL"}, {"measurement": "RV hypertrophy (RV:LV, RV weight normalized to LV and septum)", "setting": "0.1% in chow", "result": "0.39±0.1"}, {"measurement": "diastolic PAP", "setting": "0.1% in chow", "result": "26±7", "unit": "mmHg"}, {"measurement": "mean PAP", "setting": "0.1% in chow", "result": "35±11", "unit": "mmHg"}, {"measurement": "completely muscularized arterioles", "setting": "0.1% in chow", "result": 35.6, "unit": "%"}, {"measurement": "systolic PAP", "setting": "0.1% in chow", "result": "52±22", "unit": "mmHg"}, {"measurement": "plasma levels of BNP", "setting": "0.2% in chow", "result": "0.1 ± 0.1", "unit": "ng/mL"}, {"measurement": "RV hypertrophy (RV:LV, RV weight normalized to LV and septum)", "setting": "0.2% in chow", "result": "0.35±0.11"}, {"measurement": "diastolic PAP", "setting": "0.2% in chow", "result": "20±5", "unit": "mmHg"}, {"measurement": "mean PAP", "setting": "0.2% in chow", "result": "27±8", "unit": "mmHg"}, {"measurement": "completely muscularized arterioles", "setting": "0.2% in chow", "result": 32.6, "unit": "%"}, {"measurement": "systolic PAP", "setting": "0.2% in chow", "result": "36±13", "unit": "mmHg"}]}]}
